Compound activity: PubChem, several laboratories
Sampled rows, rich in hits. Any-hit rate of the full collection: about 1.2%.
DSG3 Ab inh – blocks pemphigus antibody binding to human desmoglein-3 | 310,000 compounds, 0.48% hits | DSG3-coupled beads, scFv-anti-DSG3-GFP binding, flow cytometry; active compounds read low | binding (percent of control), % at 10 µM;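 active = binding more than 3 SD below its plate's average and above zero; inconclusive = below that plate limit but binding exactly zero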;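 also: hits lower antibody fragment binding to DSG3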
TbMetRS inhib – Trypanosoma brucei MetRS inhibition; 360,000 compounds, 0.4% hits; purified T. brucei MetRS, ATP depletion, Kinase-Glo luminescence; inhibition, % at 11.9 µM;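 active = inhibition above a per-plate cutoff of the control wells' mean inhibition plus 3 SD, cut at about 5.5% in these data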;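 also: 0% = DMSO wells median and 100% = median of wells with control inhibitor compound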
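System: purified T. brucei MetRS enzyme / Detection: Kinase-Glo luciferase luminescence reporting remaining unconsumed ATP / Medium: HEPES buffer with MgCl2, KCl, DTT, spermine, BSA, pyrophosphatase / Replication: singlicate, one well per compound / Evaluation: percent inhibition relative to median high and low control wells / Schedule: 2 h aminoacylation at 25 °C after 15 min preincubation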
Arrestin-AP2 inh – inhibitors of human beta-arrestin and AP2 interaction; FITC-arrestin peptide / GST-AP2 beads, flow cytometry; AP2 beta2 appendage carries R879A mutation; inhibition, % at 10 µM; 340,000 compounds, 0.31% hits; AID 504490;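 active = inhibition above a set limit, near 3 SD of compounds lacking own fluorescence, cut at about 54% in these data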;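 also: plate controls were DMSO wells for no effect and 5 µM unlabelled arrestin peptide for full effect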
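Test system: GST-tagged AP2 beta2-adaptin appendage (R879A) on 4 µm glutathione beads; also added: fluorescein-tagged arrestin peptide at 50 nM final; timing: 12 min plus 1 h, RT; signal: flow cytometry, FL1 (488/535 nm); read-out: percent drop in bead-associated FITC signal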
Yeast UUG start – modulators of start codon recognition fidelity in yeast; S. cerevisiae UUG-firefly luciferase reporter, luminescence/redox ratio; activity score, % at 18.7 µM; hit rate 0.13% among 350,000; AID 602363;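 active = replicate mean at a twofold rise or more, about +100% in these data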;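 note: firefly luciferase made from a UUG start codon reports start codon fidelity; reporter light over untreated wells divided by growth signal over untreated wells; some hits fall short of that in this replicate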
Rce1 inhib – inhibitors of yeast Ras-converting enzyme. yeast membranes, quenched prenylated peptide cleavage fluorescence. calls only. 290,000 compounds, 0.27% hits;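 active = fall in fluorescence gain of 50% or more versus controls, with final raw signal at or below 3038400; inconclusive = same 50% fall but final raw signal above 3038400; inactive = fall in fluorescence gain under 50%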;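 also: plate controls were neutral control wells for no effect and wells lacking membranes for full effect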
Arr AP2 CP1 – inhibitors of human beta-arrestin and AP2 interaction; shares compounds with Arrestin-AP2 inh; GST-AP2 beads, FITC arrestin peptide binding, flow cytometry; GST-fused beta2-adaptin appendage, R879A mutant; inhibition, % at 10 µM; 1,300 compounds, 2% hits; AID 504908;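 active = inhibition above a set limit, roughly 3 SD of non-fluorescent compound noise, cut at about 38% in these data; inactive = inhibition at or below that limit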;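 also: loss of bead fluorescence from 50 nM FITC arrestin peptide bound to appendage; 0% = negative control wells and 100% = excess unlabelled arrestin peptide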
GST-FITC bead – counter-screen for beta-arrestin AP2 inhibitors: GST-GSH bead binding; shares compounds with Arrestin-AP2 inh; 1,300 compounds, 2% hits; inhibition, % at 10 µM; GST-fluorescein binding to GSH beads, fluorescence; AID 588338;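 active = inhibition above 50%, about 3 SD of the inhibition seen with non-fluorescent compounds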;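 also: fluorescein maleimide labelled GST captured on 4 micron glutathione beads; higher means more loss of bead fluorescence from quenching or blocked binding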
* hit, by the source's call; i = inactive; ? = inconclusive; nt = not tested or not shown.

The line under a structure holds: Rce1 inhib	Arr AP2 CP1	Yeast UUG start	GST-FITC bead	DSG3 Ab inh	Arrestin-AP2 inh	TbMetRS inhib
C[C@H]1CN([C@@H](C)CO)C(=O)c2cccc(NS(=O)(=O)c3ccccc3)c2O[C@H]1CN(C)Cc1ccccc1
    nt	nt	-1	nt	nt	nt	nt
Nc1ncc(-n2cncn2)c(-c2ccc(Cl)cc2)n1
    i	-11	-5	-2	100	56*	-1
Cc1cc(C)nc(NS(=O)(=O)c2ccc(NC(=S)NC(=O)c3ccco3)cc2)n1
    i	-5	nt	-5	102	58*	-1
O=C(Nc1ccccc1Cl)c1cc(S(=O)(=O)N2CCCCC2)ccc1N1CCOCC1
    i	nt	-16	nt	93	8	-1
CN(Cc1ccc(Cl)cc1)C(=O)c1cc(S(=O)(=O)N2CCOCC2)ccc1N1CCCC1
    i	-2	-2	-13	95	-9	0
CN(CCOc1ccc(Cl)cc1)C(=O)c1cc(S(=O)(=O)N2CCOCC2)ccc1N1CCCC1
    nt	20	13	-8	100	-1	0
CC(NC(=O)c1cc(S(=O)(=O)N2CCOCC2)ccc1N1CCCC1)c1ccc(Cl)c(Cl)c1 (stereo not given)
    i	13	nt	-1	101	-7	0
CN(Cc1ccc(F)cc1)C(=O)c1cc(S(=O)(=O)N2CCCCC2)ccc1N1CCOCC1
    nt	nt	8	nt	98	-2	0
CCCN(C)C[C@H]1OCCCC[C@@H](C)Oc2ccc(NS(=O)(=O)c3cccs3)cc2C(=O)N([C@@H](C)CO)C[C@@H]1C
    nt	nt	1	nt	nt	nt	nt
O=C(CC12CC3CC(CC(C3)C1)C2)NC(Cc1ccccc1)C(=O)O (stereo not given)
    i	-1	-7	9	99	55*	0
CC(=O)NC(Cc1ccccc1)C(=O)O (stereo not given)
    i	nt	-18	nt	102	-3	-1
C=C(C)C1CC=C(CN2CCN(Cc3ccccc3)CC2)CC1 (stereo not given)
    i	nt	-17	nt	102	0	0
C=C(C)[C@@H]1CC=C(CN2CCN(Cc3ccccc3)CC2)CC1
    i	-4	nt	2	97	60*	-1
Cc1ccc(C(=O)OCC(=O)N2CCCC2)cc1
    i	7	2	-1	106	64*	0
CC(C)CC#Cc1ccc2c(c1)O[C@@H](CN(C)C(=O)Cc1ccccn1)[C@@H](C)CN([C@H](C)CO)S2(=O)=O
    nt	nt	-4	nt	nt	nt	nt
CC(=O)c1ccc(NC(=O)C2C3C=CC(C3=C(c3ccccc3)c3ccccc3)C2C(=O)O)cc1 (stereo not given)
    i	-3	nt	-5	101	56*	-1
COc1cccc(NC(=O)Nc2cnccn2)c1
    i	3	nt	-12	85	3	0
Cc1cccc(NC(=O)Nc2cnccn2)c1
    i	5	nt	-5	100	18	0
Cc1cccc(NC(=O)Nc2ccncc2)c1
    i	nt	4	nt	92	-1	0
Cc1ccc(NC(=O)Nc2cnccn2)c(C)c1
    i	-8	-2	-1	101	0	-1
O=C(Cn1ccnc1)c1ccc(Cl)cc1
    i	-18	-14	0	94	55*	-1
CC(C)CCn1cnc2c(sc3nc4c(cc32)CSC(C)(C)C4)c1=O
    i	-5	nt	8	100	104*	0
CCCn1c(=O)c(C(=O)NCCc2ccc(OC)cc2)c(O)c2ccccc21
    i	0	-10	-10	120	55*	-1
CCCn1c(=O)c(C(=O)NCCc2ccccc2)c(O)c2ccccc21
    i	nt	-11	nt	101	-4	0
CC(OC(=O)c1ccc(Cl)nc1)C(=O)NCc1ccc2c(c1)OCO2 (stereo not given)
    i	9	10	0	109	61*	0
C(=N\n1cnnc1)/c1ccc(N2CCOCC2)s1
    i	-9	-12	-5	93	92*	0
O=C(Cn1cnc(S(=O)(=O)N2CCCC2)c1)Nc1ccc(OC(F)(F)F)cc1
    i	2	-7	-5	100	66*	0
CCC(=O)Nc1ccc2c(c1)C(=O)N(C)[C@@H]1CC[C@H](CC(=O)O)O[C@@H]1CO2
    nt	nt	-11	nt	nt	nt	nt
N#Cc1sc2nc(-c3cccs3)cc(-c3ccccc3)c2c1N
    i	nt	-13	nt	96	3	0
N#Cc1sc2nc(-c3cccs3)cc(-c3ccc(Cl)cc3)c2c1N
    i	-11	nt	9	83	61*	-1

Shown as comma-separated lines: part of the list above
compound,Rce1 inhib,Arr AP2 CP1,Yeast UUG start,GST-FITC bead,DSG3 Ab inh,Arrestin-AP2 inh,TbMetRS inhib
O=C(Cn1ccnc1)c1ccc(Cl)cc1,i,-18,-14,0,94,55*,-1
CC(C)CCn1cnc2c(sc3nc4c(cc32)CSC(C)(C)C4)c1=O,i,-5,nt,8,100,104*,0

The list goes on.
The line under a structure holds: Rce1 inhib	Arr AP2 CP1	Yeast UUG start	GST-FITC bead	DSG3 Ab inh	Arrestin-AP2 inh	TbMetRS inhib
COc1ccccc1C(=O)NC(=O)COC(=O)c1nc2nc(C)cc(C)n2n1
    i	4	-9	-7	97	60*	0
COc1ccc(-c2cc(C(=O)Nc3c(C)n(C)n(-c4ccccc4)c3=O)c3ccccc3n2)cc1OC
    i	-10	-29	-3	106	56*	-1
C[C@H](CO)N1C[C@H](C)[C@H](CN(C)CC2CC2)Oc2cc(C#Cc3ccncc3)ccc2S1(=O)=O
    nt	nt	-11	nt	nt	nt	nt
C[C@@H](C(=O)Nc1ccc2c(c1)OCO2)n1c(=O)[nH]c2ccccc2c1=O
    i	-3	-17	-4	98	4	-1
O=C(Cn1ccc2ccccc2c1=O)Nc1ccc2c(c1)OCO2
    i	nt	-14	nt	95	4	0
C[C@@H](C(=O)Nc1ccc2c(c1)OCCO2)n1c(=O)[nH]c2ccccc2c1=O
    i	6	-58	-1	99	-9	0
O=C(Cn1c(=O)[nH]c2ccccc2c1=O)Nc1ccc2c(c1)OCO2
    i	1	-4	0	?	-2	0
CO[C@@H]1CN(C)C(=O)c2cc(NS(C)(=O)=O)ccc2OC[C@H](C)N(C(=O)C2CCC2)C[C@@H]1C
    nt	nt	-14	nt	nt	nt	nt
CN1CCN(C(=O)C[C@H]2CC[C@@H]3[C@@H](COc4ccc(NC(=O)c5ccc(F)c(F)c5)cc4C(=O)N3C)O2)CC1
    nt	nt	-3	nt	nt	nt	nt
C[C@H]1CN([C@@H](C)CO)C(=O)Cc2cc(NC(=O)CCC(F)(F)F)ccc2O[C@@H]1CN(C)Cc1ccccc1
    nt	nt	-11	nt	nt	nt	nt

Results in Yeast UUG start and GST-FITC bead, for some of the entries so far:
smiles | Yeast UUG start | GST-FITC bead
C[C@H](CO)N1C[C@H](C)[C@H](CN(C)CC2CC2)Oc2cc(C#Cc3ccncc3)ccc2S1(=O)=O | -11 | nt
O=C(Cn1ccc2ccccc2c1=O)Nc1ccc2c(c1)OCO2 | -14 | nt
C[C@@H](C(=O)Nc1ccc2c(c1)OCCO2)n1c(=O)[nH]c2ccccc2c1=O | -58 | -1
CN1CCN(C(=O)C[C@H]2CC[C@@H]3[C@@H](COc4ccc(NC(=O)c5ccc(F)c(F)c5)cc4C(=O)N3C)O2)CC1 | -3 | nt
C[C@H]1CN([C@@H](C)CO)C(=O)Cc2cc(NC(=O)CCC(F)(F)F)ccc2O[C@@H]1CN(C)Cc1ccccc1 | -11 | nt

Further results
The line under a structure holds: Rce1 inhib	Arr AP2 CP1	Yeast UUG start	GST-FITC bead	DSG3 Ab inh	Arrestin-AP2 inh	TbMetRS inhib
CCc1nnc(SCC(=O)Nc2ccc(C(C)=O)cc2)nc1CC
    i	18	-15	1	98	83*	0
CN(CCCNC(=O)C1CCC(=O)N1Cc1ccccc1Cl)c1ccccc1 (stereo not given)
    i	nt	-18	nt	102	6	-1
Cc1ccc(CN2C(=O)CCC2C(=O)NCCN2CCOCC2)cc1 (stereo not given)
    i	-10	-14	-4	100	6	0
Cc1ccc(CNC(=O)C2CCC(=O)N2Cc2ccc(C)cc2)cc1 (stereo not given)
    i	nt	-2	nt	95	-22	-1
Cc1ccc(CN2C(=O)CCC2C(=O)NCCCN2CCCC(C)C2)cc1 (stereo not given)
    i	-11	2	-9	97	2	-1
